Source: PMC11966042, “Pharmacological evaluation of drug therapies in Aicardi-Goutières syndrome: insights from patient-derived neural stem cells” (Frontiers in Pharmacology, 2025)

Tested on: BJ-NSC
Assay: MTT cytotoxicity assay, 72 h drug exposure, BJ-NSCs (healthy control)
Type: cell-based, human
Experimental: For NSCs differentiation, iPSCs colonies were seeded in StemMACS iPS-Brew XF medium on diluted Geltrex coated 6-wells plates at a density of 3 × 10^5 cells/well and allowed to recover for 24 h at 37°C 5% CO2, 20% O2. Then, the medium was change to PSC Neural Induction medium (A1647801, Gibco, ThermoFisher Scintific, Italy) and, for 7 days, medium was replaced every other day, according to standard protocol (ThermoFisher Scientific, MAN0008031).
Patient-specific NSCs and the control BJ-NSCs were maintained in a medium consisting of equal parts of PSC Neural Induction Medium and Advanced DMEM/F12, on diluted Geltrex matrix coated plates (1:100 Geltrex in DMEM/F12 medium).
AGS2 patient-derived iPSCs were seeded at 3.0 × 10^4 cells/well in a final volume of 100 µL while all the other iPSCs tested (AGS1, AGS7 and BJ-iPSCs) were seeded at 1.0 × 10^4 cells/well; all NSCs were seeded at 1.0 × 10^4 cells/well. After 24 h of incubation at 37°C, 5%CO2, 20% O2, the cultural medium was replaced with a drug-containing medium at serially diluted concentrations (Supplementary Table S1). […] Absorbance was measured at 540–630 nm wavelength (Fluorostar Omega, BMG, Labtech Germany).
Cell metabolic activity was calculated as % cell activity = (absorbance treated/absorbance control)*100, and considered as a measurement of cell viability. […]

Nc1nc2nc[nH]c2c(=S)[nH]1 [thioguanine]
cytotoxicity (in words): did not show cytotoxicity
